Values quoted from earlier work, collected in US20100273655A1, “Composition and method for controlling invasive aquatic flora” (priority 2007, published 2010).

Test system: rainbow trout
Conditions: material safety data sheet

[Br-].[Br-].c1cc[n+]2c(c1)-c1cccc[n+]1CC2 [diquat dibromide, 6,7-dihydrodipyrido(1,2-a:2′,1′-c)pyrazinediium dibromide]
LC59, rainbow trout: 14.83 parts per million
